Experiment: Pharmacokinetic profiling in non-human primate (i.v., s.c.)
Details: cynomolgus monkey, in vivo, 10 nmol/kg
Text: Selected test peptides (n=8) were profiled for pharmacokinetic (PK) properties in the mouse after single intravenous (i.v.) or subcutaneous (s.c.) dose. A subset (n=4) meeting the acceptance criteria was subsequently profiled in the dog (single i.v. dose) and non-human primate (single i.v. and s.c. dose). […] Low-binding plasticware containers were used during preparation and sample handling to avoid non-specific binding.
Non-human primate: PK was studied in non-naïve male cynomolgus monkeys. After dosing, PK samples were collected from the femoral vein. Blood of each sample was transferred into plastic micro centrifuge tubes containing EDTA-K2, inverted several times for proper mixing of contents and then placed on wet ice. […]
Samples analysis: Samples were analyzed by LC-MS/MS. Calibration standards were injected at the beginning and end of each batch and the determined concentration for each prepared standard was used to construct a calibration curve. Plasma and dose aliquot sample concentrations were determined from the plasma calibration curve.
Data analysis: Plasma concentration data was analyzed by non-compartmental analysis (NCA) using Phoenix Winnonlin v. […] Subcutaneous bioavailability was calculated as the ratio AUC(s.c.)0-inf/AUC(i.v.)0-inf. […]

Q: With `CC(C)C[C@H](NC(=O)[C@H](Cc1c[nH]c2ccccc12)NC(=O)[C@H](CCC(N)=O)NC(=O)[C@@H](NC(=O)[C@H](Cc1ccccc1)NC(=O)[C@H](CC(=O)O)NC(=O)[C@H](CCCNC(=N)N)NC(=O)[C@H](C)NC(=O)[C@H](CCCNC(=N)N)NC(=O)[C@H](CCCCNC(=O)COCCOCCNC(=O)COCCOCCNC(=O)CC[C@H](NC(=O)CCCCCCCCCCCCCCCCCCC(=O)O)C(=O)O)NC(=O)[C@@H](NC(=O)[C@H](CC(=O)O)NC(=O)[C@H](CC(C)C)NC(=O)[C@](C)(Cc1ccccc1)NC(=O)[C@H](CCCCN)NC(=O)[C@H](CO)NC(=O)[C@@H](NC(=O)[C@H](CC(=O)O)NC(=O)[C@H](CO)NC(=O)[C@@H](NC(=O)[C@H](Cc1ccccc1)NC(=O)[C@@H](NC(=O)CNC(=O)[C@H](CCC(N)=O)NC(=O)C(C)(C)NC(=O)[C@@H](N)Cc1c[nH]cn1)[C@@H](C)O)[C@@H](C)O)C(C)C)[C@@H](C)O)C(C)C)C(=O)N[C@@H](CC(C)C)C(=O)N[C@@H](CCC(=O)O)C(=O)NC(C)(C)C(=O)NCC(=O)O` [Peptide 195, H-Aib-Q-G-T-F-T-S-D-V—S-K-αMePhe-L-D-T-K-R-A-R-D-F-V-Q-W-L-L-E-Aib-G-acid] as the compound, how does the bioavailability read?
A: The bioavailability was 77%.

Reference: patent US20250353891A1 (MEDIMMUNE LIMITED, priority 2022, published 2025)
